Values joined by “and” are separate entries in the source; they are usually repeats but may differ in a detail not shown here. Equal entries are not always repeated.
Assays:
human mu receptor [1] = biological target: T1, human mu receptor (Homo sapiens, UniProt P35372); assay: Dynamic mass redistribution (DMR), mu receptor; assay type: cell-based; settings: CHO cells expressing human mu receptor, 60 min, 37 °C, mean of at least three experiments in duplicate, CL95% in brackets, read-out: mu pEC50 (CL95%) (converted)
T1 construct: expressed in transfected cells; host or cells: CHO cells stably coexpressing the receptor and chimeric Gαqi5
Method: CHO cells stably expressing the human NOP and mu receptors were kindly provided by D.G. Lambert (University of Leicester, UK). Cells were cultured in DMEM/F-12 medium supplemented with 10% FBS, 100 U/mL penicillin, 100 μg/mL streptomycin, and 2 mmol/L L-glutamine. The medium was supplemented with 400 μg/mL G418 to maintain expression. Cells were cultured at 37 °C in 5% CO2 humidified air. For DMR measurements, the label-free EnSight Multimode Plate Reader (Perkin Elmer, MA, US) was used. Cells were seeded 15,000 cells/well in a volume of 30 μL onto fibronectin-coated 384-well DMR microplates and cultured for 20 h to obtain confluent monolayers. Cells were starved in the assay buffer (HBSS with 20 mM HEPES, 0.01% BSA fraction V) for 90 min before the test. Serial dilutions were made in the assay buffer. After reading the baseline, compounds were added in a volume of 10 μL; then, DMR changes were recorded for 60 min. Responses were described as picometer (pm) shifts over time (sec) following subtraction of values from vehicle-treated wells. Maximum picometer (pm) modification (peak) was used to generate concentration response curves. […]
(§1) The pharmacological terminology adopted in this paper is consistent with IUPHAR recommendations.[59] All data are expressed as the mean ± standard error of the mean (SEM) of at least three experiments performed in duplicate. […]

Sequences of proteins named here, by UniProt entry; tags and fusion partners are left off.
UniProt P35372, whole entry: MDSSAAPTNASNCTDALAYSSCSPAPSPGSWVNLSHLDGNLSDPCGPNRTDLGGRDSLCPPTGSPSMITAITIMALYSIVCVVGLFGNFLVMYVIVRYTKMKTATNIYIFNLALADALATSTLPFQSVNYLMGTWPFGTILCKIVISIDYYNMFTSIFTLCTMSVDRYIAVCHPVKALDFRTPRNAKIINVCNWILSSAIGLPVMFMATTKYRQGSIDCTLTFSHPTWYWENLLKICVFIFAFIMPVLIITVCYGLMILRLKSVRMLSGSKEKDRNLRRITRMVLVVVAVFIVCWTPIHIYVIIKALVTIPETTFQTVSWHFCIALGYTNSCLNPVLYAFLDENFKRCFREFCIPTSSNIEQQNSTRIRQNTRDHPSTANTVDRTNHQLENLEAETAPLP

human mu receptor [2] = biological target: T1, human mu receptor; assay: Calcium mobilization, mu opioid receptor; assay type: cell-based
Method: CHO cells stably coexpressing the human NOP or kappa or the mu receptor and the C-terminally modified Gαqi5 and CHO cells coexpressing the delta receptor and the GαqG66Di5 protein were generated and cultured as described previously.[45],[46] Cells were maintained in Dulbecco’s modified Eagle’s medium/nutrient mixture F-12 (DEMEM/F-12) supplemented with 10% FBS, 100 U/mL penicillin and 100 μg/mL streptomycin, 100 μg/mL hygromicin B, and 200 μg/mL G418 and cultured at 37 °C in 5% CO2 humidified air. Cells were seeded at a density of 50,000 cells/well into 96-well black, clear-bottom plates. The following day, the cells were incubated with Hanks’ balanced salt solution (HBSS) supplemented with 2.5 mM probenecid, 3 μM of the calcium-sensitive fluorescent dye Fluo-4 AM, and 0.01% pluronic acid for 30 min at 37 °C. […] After placing both plates (cell culture and master plate) into the fluorometric imaging plate reader FlexStation II (Molecular Devices, Sunnyvale, CA), fluorescence changes were measured. […] Maximum change in fluorescence, expressed as percent over the baseline fluorescence, was used to determine agonist response.
as §1

C[C@@H](NC(=O)[C@@H](N)Cc1ccc(O)cc1)C(=O)N[C@@H](Cc1ccccc1)C(=O)NCC(=O)N[C@@H](Cc1ccc(O)cc1)C(=O)N1CCC[C@H]1C(=O)N[C@@H](CO)C(N)=O [Compound 2, dermorphin, reference compound] was tested, and the EC50 (human mu receptor [1]) was 1.2 nM and the EC50 (human mu receptor [2]) was 19.5 nM and 14.8 nM and 7.08 nM.
